The experiment deals with T1, DPP-4 (EVs from germfree mice) (Mus musculus, UniProt P28843).
T1 construct: gene Dpp4
Put plainly: biochemical. As to conditions: read-out: % inhibition at 0.33 μM.

Protein sequences, listed by entry. Tags and fused reporters are not part of them. Lines headed by an entry give the natural chain unless they say otherwise; changes in a name come on top.
UniProt P28843: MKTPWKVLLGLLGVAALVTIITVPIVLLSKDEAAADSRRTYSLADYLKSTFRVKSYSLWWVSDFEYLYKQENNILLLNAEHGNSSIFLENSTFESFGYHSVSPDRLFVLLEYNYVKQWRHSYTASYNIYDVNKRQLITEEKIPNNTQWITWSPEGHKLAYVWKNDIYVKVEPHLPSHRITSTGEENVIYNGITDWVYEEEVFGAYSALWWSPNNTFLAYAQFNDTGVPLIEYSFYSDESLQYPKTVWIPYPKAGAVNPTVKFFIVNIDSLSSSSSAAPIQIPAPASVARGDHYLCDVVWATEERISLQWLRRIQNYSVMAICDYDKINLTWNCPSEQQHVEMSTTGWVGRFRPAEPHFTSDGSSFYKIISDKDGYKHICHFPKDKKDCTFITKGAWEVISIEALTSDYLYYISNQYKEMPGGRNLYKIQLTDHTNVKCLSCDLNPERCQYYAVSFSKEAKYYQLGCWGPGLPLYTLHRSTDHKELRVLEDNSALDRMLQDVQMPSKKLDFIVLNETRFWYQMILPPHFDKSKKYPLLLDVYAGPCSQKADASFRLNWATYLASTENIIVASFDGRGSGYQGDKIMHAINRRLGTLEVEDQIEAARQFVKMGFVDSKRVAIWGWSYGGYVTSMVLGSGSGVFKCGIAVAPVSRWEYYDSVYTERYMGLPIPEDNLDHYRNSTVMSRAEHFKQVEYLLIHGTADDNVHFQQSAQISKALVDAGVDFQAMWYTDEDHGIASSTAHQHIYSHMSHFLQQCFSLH

Each structure is given as a SMILES string.

What is called inhibition is the drop in the measured response relative to a control, in per cent. Take `N#C[C@@H]1CCCN1C(=O)CNC12CC3CC(CC(O)(C3)C1)C2` [vildagliptin]: the inhibition at 0.33 µM was roughly 80%.

(Values after paper PMC9397113, “The Proteome of Extracellular Vesicles Produced by the Human Gut Bacteria Bacteroides thetaiotaomicron In Vivo Is Influenced by Environmental and Host-Derived Factors” (Applied and Environmental Microbiology, 2022).)
